Consider one molecule from ChEMBL document CHEMBL1921705, “Thiophene inhibitors of PDE4: crystal structures show a second binding mode at the catalytic domain of PDE4D2” (Bioorg Med Chem Lett, 2011).

Protein sequences, listed by entry. Tags and fused reporters are not part of them. Lines headed by an entry give the natural chain unless they say otherwise; changes in a name come on top.
UniProt Q08499: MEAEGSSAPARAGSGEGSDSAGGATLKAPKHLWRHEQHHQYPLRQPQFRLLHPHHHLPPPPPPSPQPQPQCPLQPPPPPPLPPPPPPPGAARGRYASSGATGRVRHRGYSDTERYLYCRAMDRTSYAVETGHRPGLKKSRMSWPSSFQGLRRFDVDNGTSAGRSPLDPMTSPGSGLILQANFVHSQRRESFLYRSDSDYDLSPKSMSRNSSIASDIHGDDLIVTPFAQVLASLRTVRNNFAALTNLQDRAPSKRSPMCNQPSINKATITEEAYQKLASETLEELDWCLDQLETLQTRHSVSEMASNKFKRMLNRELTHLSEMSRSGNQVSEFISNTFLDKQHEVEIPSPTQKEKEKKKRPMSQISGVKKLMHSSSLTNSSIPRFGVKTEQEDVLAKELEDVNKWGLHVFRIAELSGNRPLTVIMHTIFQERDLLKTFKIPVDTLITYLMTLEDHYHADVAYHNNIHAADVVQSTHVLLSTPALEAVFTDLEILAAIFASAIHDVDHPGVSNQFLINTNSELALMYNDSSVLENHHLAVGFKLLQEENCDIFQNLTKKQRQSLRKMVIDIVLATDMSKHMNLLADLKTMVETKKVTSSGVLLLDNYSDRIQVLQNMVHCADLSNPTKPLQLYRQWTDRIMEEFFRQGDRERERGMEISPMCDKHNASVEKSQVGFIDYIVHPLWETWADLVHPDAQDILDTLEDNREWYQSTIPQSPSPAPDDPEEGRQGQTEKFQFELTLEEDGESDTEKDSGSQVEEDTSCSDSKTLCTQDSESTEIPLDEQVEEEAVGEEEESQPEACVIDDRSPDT

pIC50: −log10 of the molar value.

This assay deals with 3',5'-cyclic-AMP phosphodiesterase 4D (Homo sapiens, UniProt Q08499). Kind of assay: Inhibition of human recombinant PDE4D2 overexpressed in Escherichia coli after 15 mins using [3H]cAMP by scintillation proximity assay.

`CCOC(=O)N1CCc2c(sc(NC(=O)Cc3cccs3)c2C(=O)OC2CCCC2)C1`: the negative-log IC50 (pIC50) is 6.54.

Usually pIC50 stands for the negative decadic logarithm of the IC50, by convention in mol/L.
